Assay results as given in ChEMBL document CHEMBL1955852, “Development of live-cell imaging probes for monitoring histone modifications” (Bioorg Med Chem, 2012).
pIC50, pKd: −log10 of the molar value.

Chains of the proteins cited; added tags and fusions are not shown.
UniProt Q15059, whole entry: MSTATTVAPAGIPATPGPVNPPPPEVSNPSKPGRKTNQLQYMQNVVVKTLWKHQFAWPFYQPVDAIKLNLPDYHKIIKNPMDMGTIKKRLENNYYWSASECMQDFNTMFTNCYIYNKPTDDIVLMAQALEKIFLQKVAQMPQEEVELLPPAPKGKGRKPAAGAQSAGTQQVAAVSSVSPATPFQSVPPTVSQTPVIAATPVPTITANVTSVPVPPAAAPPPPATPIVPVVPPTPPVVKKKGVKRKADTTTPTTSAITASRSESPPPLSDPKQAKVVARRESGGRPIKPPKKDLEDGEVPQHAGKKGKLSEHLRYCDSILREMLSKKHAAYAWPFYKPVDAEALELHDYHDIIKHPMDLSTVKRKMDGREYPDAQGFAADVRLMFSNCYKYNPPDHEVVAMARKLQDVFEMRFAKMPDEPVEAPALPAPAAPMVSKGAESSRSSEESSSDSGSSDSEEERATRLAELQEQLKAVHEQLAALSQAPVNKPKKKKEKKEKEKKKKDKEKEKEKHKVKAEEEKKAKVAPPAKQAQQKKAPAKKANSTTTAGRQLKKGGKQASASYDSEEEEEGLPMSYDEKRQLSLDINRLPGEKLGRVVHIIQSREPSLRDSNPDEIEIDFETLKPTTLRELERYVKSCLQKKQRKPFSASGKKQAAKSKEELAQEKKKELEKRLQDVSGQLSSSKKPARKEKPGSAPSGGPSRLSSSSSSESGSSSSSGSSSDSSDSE

Assays:
[1] = target: T1, Bromodomain-containing protein 3 (Homo sapiens, UniProt Q15059); assay: Binding affinity to BRD3-BD1,2 by isothermal titration calorimetry
[2] = target: T1, Bromodomain-containing protein 3; assay: Displacement of acetylated histone peptide from BRD3-BD1,2 by FRET assay

Cc1nnc2n1-c1ccccc1C(c1ccccc1)=N[C@H]2NC(=O)OCc1ccccc1
pKd [1]: 7.34 | pIC50 [2]: 7.55
